In article PMC7441487 (mBio, 2020):
Several values for one entry are separate records, joined by “and”; a condition that tells them apart may be missing. Equal values may be shown once.

What was measured:
SARS-CoV-2 M^pro [1] = target: T1, SARS-CoV-2 M^pro (Severe acute respiratory syndrome coronavirus 2, UniProt P0DTD1); test: M^pro molecular weight analysis with HPLC/MS (covalent binding)
SARS-CoV-2 M^pro [2] = target: T1, SARS-CoV-2 M^pro

O=C(Oc1cncc(Cl)c1)c1cccc2[nH]ccc12 [GRL-0920]
Average mass of the major M^pro species with compound (SARS-CoV-2 M^pro [1]): 33,997.27
Tm of M^pro (SARS-CoV-2 M^pro [2]): 51.04 °C and 49.13 °C and 46.98 °C
